Earlier results on one substance are cited in patent publication US20060029940A1, “Prostate stem cell antigen (PSCA) variants and subsequences thereof” (priority 2003, published 2006).

The conditions of the data set: patients treated with Herceptin alone.

Turning to “Herceptin: FDA approved pharmaceutical whose active ingredient is an antibody immunoreactive with HER2”, the significant cardiotoxicity entry is given as “very low percentage of patients”.
